Data from publication PMC7571155, “Design, Synthesis and Biological Investigation of Flavone Derivatives as Potential Multi-Receptor Atypical Antipsychotics” (Molecules, 2020).

Experiment: in vivo
Settings: mouse, po

Structure (SMILES): Cc1nc2n(c(=O)c1CCN1CCC(c3noc4cc(F)ccc34)CC1)CCCC2 [Risperidone, reference compound]
- ED50: 0.92 mg/kg
